In experiment [1] the target is T1, CB1 receptors (Mus musculus, UniProt P47746).
T1 construct: expressed in transfected cells
The experiment can be described thus: ERK1/2 phosphorylation by Western blot in CB1-expressing DBT subclones. The format is cell-based. The conditions noted are these: antagonist 5 µM added 10 min before CP. Background: In western blotting, separated proteins are transferred to a membrane and probed.

Chains of the proteins cited; added tags and fusions are not shown.
UniProt P47746, whole entry: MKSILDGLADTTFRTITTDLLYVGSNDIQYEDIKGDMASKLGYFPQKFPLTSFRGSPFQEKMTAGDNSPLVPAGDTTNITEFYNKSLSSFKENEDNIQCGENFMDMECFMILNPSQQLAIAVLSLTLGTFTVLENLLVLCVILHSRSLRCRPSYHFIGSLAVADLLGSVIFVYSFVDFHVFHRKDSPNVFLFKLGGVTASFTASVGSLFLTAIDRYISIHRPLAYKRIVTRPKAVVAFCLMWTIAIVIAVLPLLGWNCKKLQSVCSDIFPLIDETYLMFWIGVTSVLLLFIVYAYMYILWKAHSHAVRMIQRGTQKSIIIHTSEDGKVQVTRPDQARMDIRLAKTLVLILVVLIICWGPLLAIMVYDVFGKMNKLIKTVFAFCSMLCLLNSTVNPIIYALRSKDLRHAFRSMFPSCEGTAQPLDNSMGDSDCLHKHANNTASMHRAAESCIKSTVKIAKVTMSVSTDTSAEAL

For experiment [2], the target named is T1, CB1 receptors. Nature of the experiment: AKT phosphorylation by Luminex multiplex immunoassay in CB1-expressing DBT subclones. Format: cell-based. The conditions noted are these: antagonist 5 µM added 10 min before CP.

Regarding `Cc1c(C(=O)NN2CCCCC2)nn(-c2ccc(Cl)cc2Cl)c1-c1ccc(Cl)cc1` [SR141716A, 5-(4-chlorophenyl)-1-(2,4-dichlorophenyl)-4-methyl-N-(1-piperidyl)-1H-pyrazole-3-carboxamide], in experiment [1], the “Effect on CP-55,940 (1 µM)-induced ERK1/2 phosphorylation” value is given as “significantly attenuated”. Further, the “Effect on CP-55,940 (1 µM)-induced AKT phosphorylation” value in experiment [2] was “antagonized”.

(Values after paper PMC2806825, “The Expression Level of CB1 and CB2 Receptors Determines Their Efficacy at Inducing Apoptosis in Astrocytomas” (PLoS ONE, 2010).)
